Measurements as given in patent publication US20250354195A1, “METHOD OF SCREENING” (UNIVERSITY OF DUNDEE, priority 2024, published 2025).

By UniProt entry, the sequences of proteins in these tests, tags left out.
UniProt P49841, whole entry: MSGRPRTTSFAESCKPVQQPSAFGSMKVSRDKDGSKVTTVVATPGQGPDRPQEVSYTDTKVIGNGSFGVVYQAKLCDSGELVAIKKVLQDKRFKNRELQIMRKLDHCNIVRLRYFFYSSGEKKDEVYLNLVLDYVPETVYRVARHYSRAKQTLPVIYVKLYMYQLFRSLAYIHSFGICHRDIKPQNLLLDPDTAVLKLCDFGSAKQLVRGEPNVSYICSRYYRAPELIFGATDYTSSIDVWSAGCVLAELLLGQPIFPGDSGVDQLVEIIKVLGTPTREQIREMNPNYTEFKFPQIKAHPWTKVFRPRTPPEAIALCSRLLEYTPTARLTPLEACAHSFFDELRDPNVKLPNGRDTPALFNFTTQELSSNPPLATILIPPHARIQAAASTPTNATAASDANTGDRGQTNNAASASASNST
UniProt Q96SW2, whole entry: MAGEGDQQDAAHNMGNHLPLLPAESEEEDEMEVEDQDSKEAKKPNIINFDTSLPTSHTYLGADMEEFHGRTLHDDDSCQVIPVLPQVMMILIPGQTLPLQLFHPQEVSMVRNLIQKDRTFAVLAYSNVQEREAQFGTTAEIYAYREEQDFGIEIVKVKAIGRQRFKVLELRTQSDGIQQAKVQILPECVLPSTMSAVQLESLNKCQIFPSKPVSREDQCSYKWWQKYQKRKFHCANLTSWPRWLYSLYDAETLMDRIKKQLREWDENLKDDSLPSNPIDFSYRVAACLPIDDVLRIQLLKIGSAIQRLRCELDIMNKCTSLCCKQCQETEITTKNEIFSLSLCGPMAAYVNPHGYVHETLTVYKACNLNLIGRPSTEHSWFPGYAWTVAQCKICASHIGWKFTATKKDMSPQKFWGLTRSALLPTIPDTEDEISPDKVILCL
UniProt Q16531, whole entry partner: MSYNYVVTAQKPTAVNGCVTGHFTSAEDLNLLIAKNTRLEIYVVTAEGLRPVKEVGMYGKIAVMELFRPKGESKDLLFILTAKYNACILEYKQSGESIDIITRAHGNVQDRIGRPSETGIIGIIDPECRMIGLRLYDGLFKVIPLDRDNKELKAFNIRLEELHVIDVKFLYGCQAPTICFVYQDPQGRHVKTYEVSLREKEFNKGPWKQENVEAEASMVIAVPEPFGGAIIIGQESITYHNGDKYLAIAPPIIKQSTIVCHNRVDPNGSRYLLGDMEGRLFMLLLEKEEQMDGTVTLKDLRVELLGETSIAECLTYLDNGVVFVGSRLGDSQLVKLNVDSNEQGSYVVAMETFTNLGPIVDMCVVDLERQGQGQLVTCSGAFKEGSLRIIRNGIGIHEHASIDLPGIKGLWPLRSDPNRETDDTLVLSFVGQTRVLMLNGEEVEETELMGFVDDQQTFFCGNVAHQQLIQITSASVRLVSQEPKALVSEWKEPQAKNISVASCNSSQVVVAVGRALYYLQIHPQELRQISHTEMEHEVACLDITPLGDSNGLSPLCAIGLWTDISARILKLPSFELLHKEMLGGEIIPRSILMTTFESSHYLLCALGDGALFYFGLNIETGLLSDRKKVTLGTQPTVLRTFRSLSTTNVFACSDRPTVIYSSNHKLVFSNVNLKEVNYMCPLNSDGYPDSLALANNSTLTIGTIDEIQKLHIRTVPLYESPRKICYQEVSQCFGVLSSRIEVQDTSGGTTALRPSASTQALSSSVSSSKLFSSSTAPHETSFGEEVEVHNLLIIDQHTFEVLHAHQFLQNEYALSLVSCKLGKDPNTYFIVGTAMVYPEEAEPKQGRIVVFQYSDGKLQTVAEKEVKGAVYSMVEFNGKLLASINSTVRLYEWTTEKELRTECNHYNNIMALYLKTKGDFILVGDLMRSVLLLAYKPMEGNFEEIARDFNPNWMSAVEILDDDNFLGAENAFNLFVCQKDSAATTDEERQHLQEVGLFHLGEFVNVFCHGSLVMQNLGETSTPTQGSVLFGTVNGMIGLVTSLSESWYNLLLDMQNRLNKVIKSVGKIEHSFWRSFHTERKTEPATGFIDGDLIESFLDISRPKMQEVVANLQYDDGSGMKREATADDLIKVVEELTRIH

Target: GSK3β (Homo sapiens, UniProt P49841+Q96SW2)
Assay: High throughput screening for GSK3β-HiBiT targeted degradation (Nano-Glo HiBiT Lytic luminescence)
Settings: HEK293 cells with endogenously HiBiT-tagged GSK3β, 24 h incubation, products of one-pot plate array (FIG. 1, Method A); for DC50: read-out: DC50 (half-maximal degradation concentration), 0.01-30 μM
Protocol: High throughput Screening for GSK3 β-HiBiTL: Test compounds were transferred into Echo plate (Beckman, 001-12782, Echo LDV384) using BRAVO automated liquid handling platform which serves as source plate (10 mM stocks in DMSO). Serial dilutions of the compounds were done using Echo550 liquid handler as 30 μM, 10 μM, 3 μM, 1 μM, 0.3 μM, 0.1 μM, 0.03 μM and 0.01 μM in final concentrations in assay plates. One column of each assay plate was reserved for DMSO control treatments. After compounds were serially diluted in assay plates, HEK293 cells (CRL-1573, ATCC) genetically engineered using CRISPR/Cas9 technology to endogenously tag GSK3p protein with HiBiT tag at the C-terminus (Schwinn et al., 2018, CRISPR-mediated tagging of endogenous proteins with a luminescent peptide, ACS Chem. Biol., 13(2), 467-74) were seeded at a density of 5000 cells/well in 50 μL complete media in 384-well TC-grade white plates (Perkin Elmer, Culturplate, 6007619) with the help of Multidrop Combi liquid dispenser and cells were incubated for 24 h with compounds at 37° C. in humidified incubators with 5% CO2. At the end of the treatment, equal volume of Nano-Glo HiBiT Lytic reagent (Promega N3030) supplied with Nano-Glo HiBiT Lytic substrate and LgBiT Protein were added into each well according to manufacturer's instructions, and cells were incubated on an orbital shaker for 15 seconds and for a further 15 minutes at room temperature. Luminescence signals were measured in an appropriate plate reader (PHERAstar FSX, BMG Labtech) (Dixon et al., 2016, NanoLuc complementation reporter optimized for accurate measurement of protein interactions in cells, ACS Chem. Biol., 11, 400-8). Changes in protein abundance upon compound treatment were further analysed by normalising raw luminescence values to DMSO values and fold changes were plotted using for parameter logistic regression with GraphPad Prism (10.1.2).
Furthermore, the present investigators have shown that bifunctional compounds manufactured using the method of the present disclosure may be effective in the uses of bifunctional compounds, for example as PROTACs in targeted protein degradation (TPD). […] GSK3p was targeted for degradation using a binder for GSK3p, and a binder for CRBN; the binders were comprised in molecules comprising moieties for reacting with the orthogonally reactive moieties of the linker. […] The “identifier” identifies the well of the multi-well plate that has been sampled, e.g., AHD2B-1-A1 relates to the top left well in FIG. 1. The DC50 provides an indication of the potency of the bifunctional compound in targeted degradation; Dmax provides an indication of the maximum possible degradation. The use of these metrics is further described in Flexible Fitting of PROTAC Concentration-Response Curves with Changepoint Gaussian Processes, Semenova et al., SLAS Discovery, 2021, 26, 1212-1224.

Dmax (maximal effect) | DC50 | Compound
<30% | > 10000 nM | COc1ccc(-c2ocnc2C(=O)NCCCn2cc(COCCOCCN3CCN(Cc4ccc5c(N6CCC(=O)NC6=O)nn(C)c5c4)CC3)nn2)cc1Cl
<30% | > 10000 nM | COc1ccc(-c2ocnc2C(=O)NCCCn2cc(CCCCCN3CCN(Cc4ccc(C(=O)NC5CCC(=O)NC5=O)c(F)c4)CC3)nn2)cc1Cl (stereo not shown)
56% | 410 nM | COc1ccc(-c2ocnc2C(=O)NCCCn2cc(CCCCCN3CCN(Cc4ccc5c(N6CCC(=O)NC6=O)nn(C)c5c4)CC3)nn2)cc1Cl
52% | < 250 nM | COc1ccc(-c2ocnc2C(=O)NCCCn2cc(COc3ccc(CN4CCN(Cc5ccc6c(N7CCC(=O)NC7=O)nn(C)c6c5)CC4)cc3)nn2)cc1Cl
41% | 3100 nM | COc1ccc(-c2ocnc2C(=O)NCCCn2cc(COc3ccc(CN4CC5(C4)CN(Cc4ccc6c(N7CCC(=O)NC7=O)nn(C)c6c4)C5)cc3)nn2)cc1Cl
56% | < 250 nM | COc1ccc(-c2ocnc2C(=O)NCCCn2cc(-c3cccc(CN4CCN(Cc5ccc6c(N7CCC(=O)NC7=O)nn(C)c6c5)CC4)n3)nn2)cc1Cl
<30% | > 10000 nM | COc1ccc(-c2ocnc2C(=O)NCCCn2cc(COC3CCN(Cc4ccc(C(=O)NC5CCC(=O)NC5=O)c(F)c4)CC3)nn2)cc1Cl (stereo not shown)
37% | 1800 nM | COc1ccc(-c2ocnc2C(=O)NCCCn2cc(COc3ccc(CN4CCN(Cc5ccc(C(=O)NC6CCC(=O)NC6=O)c(F)c5)CC4)cc3)nn2)cc1Cl (stereo not shown)
<30% | > 10000 nM | COc1ccc(-c2ocnc2C(=O)NCCCn2cc(CCCCN3CCN(Cc4ccc(C(=O)NC5CCC(=O)NC5=O)c(F)c4)CC3)nn2)cc1Cl (stereo not shown)
<30% | > 10000 nM | COc1ccc(-c2ocnc2C(=O)NCCCn2cc(-c3ccc(CN4CCN(Cc5ccc(C(=O)NC6CCC(=O)NC6=O)c(F)c5)CC4)cn3)nn2)cc1Cl (stereo not shown)
62% | 530 nM | COc1ccc(-c2ocnc2C(=O)NCCCn2cc(CCCCCN3CCCN(Cc4ccc5c(N6CCC(=O)NC6=O)nn(C)c5c4)CC3)nn2)cc1Cl
